The values below come from US9879094B2, “Nucleic acid molecules encoding for BACE1 antibodies” (Genentech, Inc., priority 2010, dated 2018).

Amino acid sequences for entries named in this document (tags omitted). Residues count along the entry.
UniProt P56817, 22-457: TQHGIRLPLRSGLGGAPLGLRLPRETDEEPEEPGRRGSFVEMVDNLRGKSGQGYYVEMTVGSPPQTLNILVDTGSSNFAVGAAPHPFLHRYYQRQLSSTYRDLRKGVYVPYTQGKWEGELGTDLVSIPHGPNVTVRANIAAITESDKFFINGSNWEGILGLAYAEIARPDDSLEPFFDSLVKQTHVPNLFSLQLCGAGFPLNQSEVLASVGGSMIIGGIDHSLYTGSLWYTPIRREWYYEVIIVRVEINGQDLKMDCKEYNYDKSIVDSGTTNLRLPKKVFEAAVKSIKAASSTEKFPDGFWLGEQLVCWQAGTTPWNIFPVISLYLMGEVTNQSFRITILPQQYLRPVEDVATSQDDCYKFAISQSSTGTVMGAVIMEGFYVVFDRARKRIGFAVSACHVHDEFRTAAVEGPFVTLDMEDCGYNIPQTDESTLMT

For the test, the target named is BACE1 (Homo sapiens, UniProt P56817). Kind of test: Competitive ELISA on YW412.8-coated plate. The format is binding. The settings on record: YW412.8 IgG coated, biotinylated hBACE1. The protocol: As an indirect method of determining the binding site on BACE1 of the anti-BACE1 antibodies of the invention, a competitive ELISA was performed. Briefly, antibody YW412.8 IgG (1 μg/ml) was coated onto NUNC 96 well Maxisorp immunoplates overnight at 4° C. and blocked at room temperature for 1 hour with blocking buffer PBST (PBS and 1% BSA and 0.05% Tween 20). Serial dilutions of anti-BACE1 antibody YW412.8 or an hBACE1 binding peptide were incubated with a predetermined amount of biotinylated hBACE1 and incubated at room temperature for 60 minutes. The serial dilutions were then added to a YW412.8-coated plate and incubated at room temperature for 30 minutes. Subsequently, the plates were washed with wash buffer (PBS with 0.05% T-20) and developed by the addition of streptavidin labeled with horseradish peroxidase (HRP) for 30 minutes at room temperature. […] HRP-conjugated streptavidin binding to captured biotinylated hBACE1 was measured at a wavelength of 630 nm using standard techniques.
To determine the optimal concentration of biotinylated target protein used for the above competition ELISA assay, NUNC 96 well Maxisorp immunoplates were coated and blocked as described above. […] The sub-saturating concentration of biotinylated hBACE1 was determined from the curve fitting and applied to the competition ELISA from above.

As to OM99-2 [reference compound], the “competition with YW412.8 for binding to hBACE1” value is reported as “No competition”.
